In PubChem BioAssay (NCI):
This is a selection; strong and weak results do not stand in their true shares.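 For each line, cells grew in 96-well plates with the test compound present at a single concentration for 48 hours.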 Activity calls are given as the source filed them. Rule for the calls: active = growth percent below 10; inactive = the rest.

Assays:
Assay in all cases: NCI-60 one-dose screen, 48 h (100 = growth as untreated, 0 = no growth, -100 = all killed)
DU-145 prostate = conditions: 10 µM unless noted
K-562 leukemia = conditions: 10 µM unless noted
MALME-3M melanoma = conditions: 10 µM unless noted
MDA-MB-231 breast = conditions: 10 µM unless noted
RXF 393 renal = conditions: 10 µM unless noted
SF-268 CNS = conditions: 10 µM unless noted
SF-295 CNS = conditions: 10 µM unless noted
SF-539 CNS = conditions: 10 µM unless noted
UACC-257 melanoma = conditions: 10 µM unless noted
M14 melanoma = conditions: 10 µM unless noted
HCT-15 colon = conditions: 10 µM unless noted
HT29 colon = conditions: 10 µM unless noted
SNB-75 CNS = conditions: 10 µM unless noted
SNB-19 CNS = conditions: 10 µM unless noted
U251 CNS = conditions: 10 µM unless noted
PC-3 prostate = conditions: 10 µM unless noted
SK-MEL-5 melanoma = conditions: 10 µM unless noted
UACC-62 melanoma = conditions: 10 µM unless noted
LOX IMVI melanoma = conditions: 10 µM
SK-MEL-28 melanoma = conditions: 10 µM unless noted

Measured: growth

CCP(Cl)(Cl)(Cl)CC
inactive: DU-145 prostate 97.7% | K-562 leukemia 91.9% | MALME-3M melanoma 80.5% | MDA-MB-231 breast 98.5% | RXF 393 renal 91.9% | SF-268 CNS 102% | SF-295 CNS 94.8% | SF-539 CNS 86.2% | UACC-257 melanoma 85.9% | M14 melanoma 95.1% | HCT-15 colon 88.4% | HT29 colon 115% | SNB-75 CNS 90% | SNB-19 CNS 96.8% | U251 CNS 95.7% | PC-3 prostate 91.1% | SK-MEL-5 melanoma 88.5% | UACC-62 melanoma 99.7% | LOX IMVI melanoma 90.8% | SK-MEL-28 melanoma 99.4%

COC(=O)C1(C)COP(=O)(N2CCCCCC2)OC1 (stereo not given)
inactive: DU-145 prostate 101% | K-562 leukemia 85.7% | MALME-3M melanoma 105% | MDA-MB-231 breast 112% | RXF 393 renal 118% | SF-268 CNS 106% | SF-295 CNS 103% | SF-539 CNS 110% | UACC-257 melanoma 113% | M14 melanoma 98.9% | HCT-15 colon 104% | HT29 colon 98.1% | SNB-75 CNS 101% | SNB-19 CNS 96.8% | U251 CNS 103% | PC-3 prostate 108% | SK-MEL-5 melanoma 105% | UACC-62 melanoma 94.6% | LOX IMVI melanoma 96.9% | SK-MEL-28 melanoma 114%

ClCCN1c2ccccc2Sc2ccccc21
inactive: DU-145 prostate 103% | K-562 leukemia 101% | MALME-3M melanoma 100% | MDA-MB-231 breast 115% | RXF 393 renal 106% | SF-268 CNS 97.6% | SF-295 CNS 93.8% | SF-539 CNS 98.1% | UACC-257 melanoma 103% | M14 melanoma 101% | HCT-15 colon 95.1% | HT29 colon 103% | SNB-75 CNS 112% | SNB-19 CNS 99.6% | U251 CNS 100% | PC-3 prostate 94.4% | SK-MEL-5 melanoma 99% | UACC-62 melanoma 98.5% | LOX IMVI melanoma 103% | SK-MEL-28 melanoma 114%

CCSC(O)C(Cl)(Cl)Cl (stereo not given)
inactive: DU-145 prostate 111% | K-562 leukemia 104% | MALME-3M melanoma 90.1% | MDA-MB-231 breast 114% | RXF 393 renal 88.6% | SF-268 CNS 106% | SF-295 CNS 109% | SF-539 CNS 110% | UACC-257 melanoma 94.5% | M14 melanoma 101% | HCT-15 colon 99.3% | HT29 colon 107% | SNB-75 CNS 102% | SNB-19 CNS 104% | U251 CNS 104% | PC-3 prostate 102% | SK-MEL-5 melanoma 97.9% | UACC-62 melanoma 104% | LOX IMVI melanoma 103% | SK-MEL-28 melanoma 113%

CCOC(=O)CCNCCSP(=O)(O)O
inactive: DU-145 prostate 108% | K-562 leukemia 109% | MALME-3M melanoma 97.9% | MDA-MB-231 breast 96.7% | RXF 393 renal 98.5% | SF-268 CNS 100% | SF-295 CNS 106% | SF-539 CNS 101% | UACC-257 melanoma 100% | M14 melanoma 98.2% | HCT-15 colon 103% | HT29 colon 104% | SNB-75 CNS 139% | SNB-19 CNS 99.2% | U251 CNS 104% | PC-3 prostate 104% | SK-MEL-5 melanoma 99.8% | UACC-62 melanoma 98.9% | LOX IMVI melanoma 92.2% | SK-MEL-28 melanoma 109%

O=C(O)c1ccccc1[As](=O)(O)O
inactive: DU-145 prostate 99.5% | K-562 leukemia 67.7% | MALME-3M melanoma 113% | MDA-MB-231 breast 111% | RXF 393 renal 79.2% | SF-268 CNS 95.1% | SF-295 CNS 98% | SF-539 CNS 149% | UACC-257 melanoma 91.9% | M14 melanoma 103% | HCT-15 colon 111% | HT29 colon 102% | SNB-75 CNS 85.5% | SNB-19 CNS 100% | U251 CNS 101% | PC-3 prostate 94.1% | SK-MEL-5 melanoma 129% | UACC-62 melanoma 110% | LOX IMVI melanoma 90.1% | SK-MEL-28 melanoma 98.4%

CC(C)=N/N=C(\N)N[N+](=O)[O-]
inactive: DU-145 prostate 109% | K-562 leukemia 111% | MALME-3M melanoma 105% | MDA-MB-231 breast 113% | RXF 393 renal 106% | SF-268 CNS 100% | SF-295 CNS 106% | SF-539 CNS 113% | UACC-257 melanoma 101% | M14 melanoma 111% | HCT-15 colon 107% | HT29 colon 103% | SNB-75 CNS 93.4% | SNB-19 CNS 112% | U251 CNS 97.4% | PC-3 prostate 96.5% | SK-MEL-5 melanoma 107% | UACC-62 melanoma 116% | LOX IMVI melanoma 97.9% | SK-MEL-28 melanoma 119%

NCCNCCCl
inactive: DU-145 prostate 118% | K-562 leukemia 113% | MALME-3M melanoma 124% | MDA-MB-231 breast 110% | RXF 393 renal 133% | SF-268 CNS 101% | SF-295 CNS 108% | SF-539 CNS 104% | UACC-257 melanoma 89.7% | M14 melanoma 103% | HCT-15 colon 98% | HT29 colon 111% | SNB-75 CNS 96.1% | SNB-19 CNS 109% | U251 CNS 99.4% | PC-3 prostate 91.3% | SK-MEL-5 melanoma 109% | UACC-62 melanoma 97.1% | LOX IMVI melanoma 104% | SK-MEL-28 melanoma 114%

COP(=O)(CCCBr)OC
inactive: DU-145 prostate 106% | K-562 leukemia 101% | MALME-3M melanoma 113% | MDA-MB-231 breast 109% | RXF 393 renal 96% | SF-268 CNS 108% | SF-295 CNS 94.8% | SF-539 CNS 101% | UACC-257 melanoma 95.9% | M14 melanoma 112% | HCT-15 colon 96.8% | HT29 colon 100% | SNB-75 CNS 89.8% | SNB-19 CNS 99.4% | U251 CNS 96.9% | PC-3 prostate 98.1% | SK-MEL-5 melanoma 99.5% | UACC-62 melanoma 104% | LOX IMVI melanoma 99.5% | SK-MEL-28 melanoma 101%

O=[As](O)(c1cccc(O)c1)c1cccc(O)c1
inactive: DU-145 prostate 117% | K-562 leukemia 105% | MALME-3M melanoma 140% | MDA-MB-231 breast 112% | RXF 393 renal 119% | SF-268 CNS 111% | SF-295 CNS 117% | SF-539 CNS 96.6% | UACC-257 melanoma 18.8% | M14 melanoma 94.8% | HCT-15 colon 88.9% | HT29 colon 105% | SNB-75 CNS 102% | SNB-19 CNS 99% | U251 CNS 98.1% | PC-3 prostate 101% | SK-MEL-5 melanoma 107% | UACC-62 melanoma 98% | LOX IMVI melanoma 99.4% | SK-MEL-28 melanoma 102%

O=S1(=O)CC(Sc2ccccc2)[C@@H](Cl)C1 (stereo not given in full)
inactive: DU-145 prostate 111% | K-562 leukemia 96.3% | MALME-3M melanoma 116% | MDA-MB-231 breast 107% | RXF 393 renal 106% | SF-268 CNS 102% | SF-295 CNS 104% | SF-539 CNS 107% | UACC-257 melanoma 115% | M14 melanoma 102% | HCT-15 colon 104% | HT29 colon 102% | SNB-75 CNS 93.7% | SNB-19 CNS 104% | U251 CNS 94.6% | PC-3 prostate 92.6% | SK-MEL-5 melanoma 99.1% | UACC-62 melanoma 102% | LOX IMVI melanoma 104% | SK-MEL-28 melanoma 119%

COP(OC)c1ccc(C)cc1
inactive: DU-145 prostate 106% | K-562 leukemia 97.5% | MALME-3M melanoma 99.4% | MDA-MB-231 breast 106% | RXF 393 renal 169% | SF-268 CNS 100% | SF-295 CNS 116% | SF-539 CNS 112% | UACC-257 melanoma 112% | M14 melanoma 107% | HCT-15 colon 111% | HT29 colon 89.9% | SNB-75 CNS 106% | SNB-19 CNS 113% | U251 CNS 103% | PC-3 prostate 96.4% | SK-MEL-5 melanoma 108% | UACC-62 melanoma 102% | LOX IMVI melanoma 104% | SK-MEL-28 melanoma 112%

CCCCCCC(C)OP(O)OC(C)CCCCCC (stereo not given)
inactive: DU-145 prostate 117% | K-562 leukemia 103% | MALME-3M melanoma 98.8% | MDA-MB-231 breast 116% | RXF 393 renal 106% | SF-268 CNS 112% | SF-295 CNS 101% | SF-539 CNS 113% | UACC-257 melanoma 112% | M14 melanoma 100% | HCT-15 colon 102% | HT29 colon 118% | SNB-75 CNS 113% | SNB-19 CNS 98.1% | U251 CNS 98.3% | PC-3 prostate 93.5% | SK-MEL-5 melanoma 103% | UACC-62 melanoma 96.4% | LOX IMVI melanoma 98.3% | SK-MEL-28 melanoma 120%

CCCCCCCNP(=S)(Cl)Cl
inactive: DU-145 prostate 108% | K-562 leukemia 96.4% | MALME-3M melanoma 92.5% | MDA-MB-231 breast 104% | RXF 393 renal 115% | SF-268 CNS 102% | SF-295 CNS 99.5% | SF-539 CNS 94.3% | UACC-257 melanoma 112% | M14 melanoma 103% | HCT-15 colon 101% | HT29 colon 115% | SNB-75 CNS 93% | SNB-19 CNS 104% | U251 CNS 101% | PC-3 prostate 101% | SK-MEL-5 melanoma 104% | UACC-62 melanoma 96.7% | LOX IMVI melanoma 102% | SK-MEL-28 melanoma 102%

ClCCNC(Cc1ccccc1)c1ccccc1 (stereo not given)
inactive: DU-145 prostate 104% | K-562 leukemia 102% | MALME-3M melanoma 106% | MDA-MB-231 breast 91.3% | RXF 393 renal 107% | SF-268 CNS 91.4% | SF-295 CNS 96.4% | SF-539 CNS 94.2% | UACC-257 melanoma 94.6% | M14 melanoma 96.5% | HCT-15 colon 91.8% | HT29 colon 87.3% | SNB-75 CNS 79.6% | SNB-19 CNS 96.3% | U251 CNS 97.8% | PC-3 prostate 89.7% | SK-MEL-5 melanoma 97.6% | UACC-62 melanoma 94.1% | LOX IMVI melanoma 89.8% | SK-MEL-28 melanoma 107%

CCN(CCCl)C(Cc1ccccc1)c1ccccc1 (stereo not given)
inactive: DU-145 prostate 109% | K-562 leukemia 87.9% | MALME-3M melanoma 103% | MDA-MB-231 breast 112% | RXF 393 renal 111% | SF-268 CNS 104% | SF-295 CNS 101% | SF-539 CNS 111% | UACC-257 melanoma 86.3% | M14 melanoma 93.9% | HCT-15 colon 101% | HT29 colon 84.1% | SNB-75 CNS 99.9% | SNB-19 CNS 97.5% | U251 CNS 92.9% | PC-3 prostate 88.8% | SK-MEL-5 melanoma 99.9% | UACC-62 melanoma 78.4% | LOX IMVI melanoma 97.9% | SK-MEL-28 melanoma 106%
